Test system: microtubule network of HeLa cells (mScarlet-α-Tubulin)
Experiment: Confocal microscopy of HeLa cells transfected with mScarlet-α-Tubulin
Format: cell-based
Details: 1 h at 37° C.

COc1cc2c(c(OC)c1OC)-c1ccc(OC)c(=O)cc1[C@@H](NC(C)=O)CC2 [colchicine]
fluorescent microtubule phenotype: disrupted the microtubule network

Reference: patent US20230146870A1, “METHOD TO QUANTIFY AFFINITY AND SELECTIVITY OF SMALL MOLECULES FOR PROTEINS IN LIVING CELLS” (Ohio State Innovation Foundation, priority 2021, published 2023)
